{"source": "patent US6979675B2", "about": "“Treatment of cancer with 2-deoxyglucose” (Threshold Pharmaceuticals, Inc., priority 2003, dated 2005)", "details": "other two groups (2000 and 4000 mg/kg/dose), bid×5", "experimental": "The maximum tolerated dose determination for this study was conducted using female nude mice (nu/nu) between 5 and 6 weeks of age weighing approximately 20 g (Harlan, Inc., Madison, Wis.). Dosing began on Day 1. […] A 20 mL/kg dose volume was used to achieve doses of 2000, 4000, 6000, 8000, and 9000 mg/kg/dose. Individual mouse weights in grams were recorded twice weekly throughout the study. The average weight per group was calculated, and weight gain or loss was determined by comparing the current Day's average to the Day 1 average for that same group. The study was terminated on Day 21.", "data": [{"molecule": "O=CC[C@@H](O)[C@H](O)[C@H](O)CO", "note": "[2-DG, 2-deoxy-D-glucose]", "values": [{"measurement": "deaths or weight loss", "value": "No deaths or weight loss"}]}]}
